Measured values published in patent publication US20180258163A1 (Chugai, published 2018).
Positions count from the first letter of the chain named.

T1: soluble human FcγRIIb (human, UniProt P31994 43-217, limits assumed)
T1 construct: soluble His-tagged form; also called hFcγRIIb
T1 sequence (looked up): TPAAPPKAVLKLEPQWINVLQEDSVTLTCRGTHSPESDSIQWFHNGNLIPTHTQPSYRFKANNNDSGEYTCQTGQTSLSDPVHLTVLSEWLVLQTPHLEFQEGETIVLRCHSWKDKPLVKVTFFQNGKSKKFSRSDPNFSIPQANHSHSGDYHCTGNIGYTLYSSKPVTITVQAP

B1: CFP0020H0261-001-G1dP1/CFP0018H0012-002-G1dN1/CFP0020L233-k0 (bispecific antibody, human IgG1, kappa)
heavy 1: not shown
heavy 2: not shown
light: DIQMTQSPSSLSASVGDRVTITCRASQSIHNDLAWYQQKPGKAPKLLIYEASELQSGVPSRFSGSGSGTDFTLTISSLQPEDFATYYCQHYSSYPYTFGQGTKVEIKRTVAAPSVFIFPPSDEQLKSGTASVVCLLNNFYPREAKVQWKVDNALQSGNSQESVTEQDSKDSTYSLSSTLTLSKADYEKHKVYACEVTHQGLSSPVTKSFNRGEC
B2: CFP0020H0261-002-G1dP1/CFP0018H0012-002-G1dN1/CFP0020L233-k0 (bispecific antibody, human IgG1, kappa, name in Kabat numbering)
heavy 1: not shown
heavy 2: not shown
light: B1 light
B3: CFP0020H0261-005-G1dP1/CFP0018H0012-005-G1dN1/CFP0020L233-k0 (bispecific antibody, human IgG1, kappa, name in Kabat numbering)
heavy 1: not shown
heavy 2: not shown
light: B1 light
B4: CFP0020H0261-008-G1dP1/CFP0018H0012-008-G1dN1/CFP0020L233-k0 (bispecific antibody, human IgG1, kappa, name in Kabat numbering)
heavy 1: not shown
heavy 2: not shown
light: B1 light
B5: CFP0020H0261-013-G1dP1/CFP0018H0012-013-G1dN1/CFP0020L233-k0 (bispecific antibody, human IgG1, kappa, name in Kabat numbering)
heavy 1: not shown
heavy 2: not shown
light: B1 light
B6: CFP0020H0261-018-G1dP1/CFP0018H0012-018-G1dN1/CFP0020L233-k0 (bispecific antibody, human IgG1, kappa, name in Kabat numbering)
heavy 1: not shown
heavy 2: not shown
light: B1 light
B7: CFP0020H0261-023-G1dP1/CFP0018H0012-023-G1dN1/CFP0020L233-k0 (bispecific antibody, human IgG1, kappa, name in Kabat numbering)
heavy 1: not shown
heavy 2: not shown
light: B1 light
B8: CFP0020H0261-036-G1dP1/CFP0018H0012-G1dN1/CFP0020L233-k0 (bispecific antibody, human IgG1, kappa, name in Kabat numbering)
heavy 1: not shown
heavy 2: not shown
light: B1 light
B9: CFP0020H0261-037-G1dP1/CFP0018H0012-037-G1dN1/CFP0020L233-k0 (bispecific antibody, human IgG1, kappa, name in Kabat numbering)
heavy 1: not shown
heavy 2: not shown
light: B1 light
B10: CFP0020H0261-G1dP1/CFP0018H0012-014-G1dN1/CFP0020L233-k0 (bispecific antibody, human IgG1, kappa, name in Kabat numbering)
heavy 1: not shown
heavy 2: not shown
light: B1 light
B11: CFP0020H0261-G1dP1/CFP0018H0012-016-G1dN1/CFP0020L233-k0 (bispecific antibody, human IgG1, kappa, name in Kabat numbering)
heavy 1: not shown
heavy 2: not shown
light: B1 light
B12: CFP0020H0261-G1dP1/CFP0018H0012-024-G1dN1/CFP0020L233-k0 (bispecific antibody, human IgG1, kappa, name in Kabat numbering)
heavy 1: not shown
heavy 2: not shown
light: B1 light
B13: CFP0020H0261-G1dP1/CFP0018H0012-G1dN1/CFP0020L233-001-k0 (bispecific antibody, human IgG1, kappa)
heavy 1: not shown
heavy 2: not shown
light: B1 light with G16K
B14: CFP0020H0261-G1dP1/CFP0018H0012-G1dN1/CFP0020L233-002-k0 (bispecific antibody, human IgG1, kappa)
heavy 1: not shown
heavy 2: not shown
light: B1 light with Q27R
B15: CFP0020H0261-G1dP1/CFP0018H0012-G1dN1/CFP0020L233-003-k0 (bispecific antibody, human IgG1, kappa)
heavy 1: not shown
heavy 2: not shown
light: B1 light with A25R, S26R
B16: CFP0020H0261-G1dP1/CFP0018H0012-G1dN1/CFP0020L233-004-k0 (bispecific antibody, human IgG1, kappa)
heavy 1: not shown
heavy 2: not shown
light: B1 light with S52K, S56K
B17: CFP0020H0261-G1dP1/CFP0018H0012-G1dN1/CFP0020L233-005-k0 (bispecific antibody, human IgG1, kappa)
heavy 1: not shown
heavy 2: not shown
light: B1 light with T74K, S77R
B18: CFP0020H0261-G1dP1/CFP0018H0012-G1dN1/CFP0020L233-006-k0 (bispecific antibody, human IgG1, kappa)
heavy 1: not shown
heavy 2: not shown
light: B1 light with S76R, Q79K
B19: CFP0020H0261-G1dP1/CFP0018H0012-G1dN1/CFP0020L233-007-k0 (bispecific antibody, human IgG1, kappa)
heavy 1: not shown
heavy 2: not shown
light: B1 light with Q27K
B20: CFP0020H0261-G1dP1/CFP0018H0012-G1dN1/CFP0020L233-008-k0 (bispecific antibody, human IgG1, kappa)
heavy 1: not shown
heavy 2: not shown
light: B1 light with A25K, S26K
B21: CFP0020H0261-G1dP1/CFP0018H0012-G1dN1/CFP0020L233-009-k0 (bispecific antibody, human IgG1, kappa)
heavy 1: not shown
heavy 2: not shown
light: B1 light with Q37R
B22: CFP0020H0261-G1dP1/CFP0018H0012-G1dN1/CFP0020L233-010-k0 (bispecific antibody, human IgG1, kappa)
heavy 1: not shown
heavy 2: not shown
light: B1 light with G41R
B23: CFP0020H0261-G1dP1/CFP0018H0012-G1dN1/CFP0020L233-011-k0 (bispecific antibody, human IgG1, kappa)
heavy 1: not shown
heavy 2: not shown
light: B1 light with L46R, Y49K
B24: CFP0020H0261-G1dP1/CFP0018H0012-G1dN1/CFP0020L233-012-k0 (bispecific antibody, human IgG1, kappa)
heavy 1: not shown
heavy 2: not shown
light: B1 light with S52R, S56R
B25: CFP0020H0261-G1dP1/CFP0018H0012-G1dN1/CFP0020L233-016-k0 (bispecific antibody, human IgG1, kappa)
heavy 1: not shown
heavy 2: not shown
light: B1 light with G41R, T74K, S77R
B26: CFP0020H0261-G1dP1/CFP0018H0012-G1dN1/CFP0020L233-017-k0 (bispecific antibody, human IgG1, kappa)
heavy 1: not shown
heavy 2: not shown
light: B1 light with L46R, Y49K, T74K, S77R
B27: CFP0020H0261-G1dP1/CFP0018H0012-G1dN1/CFP0020L233-018-k0 (bispecific antibody, human IgG1, kappa)
heavy 1: not shown
heavy 2: not shown
light: B1 light with S52R, S56R, T74K, S77R
B28: CFP0020H0261-G1dP1/CFP0018H0012-G1dN1/CFP0020L233-019-k0 (bispecific antibody, human IgG1, kappa)
heavy 1: not shown
heavy 2: not shown
light: B1 light with S65R, T69R, T74K, S77R
B29: CFP0020H0261-G1dP1/CFP0018H0012-G1dN1/CFP0020L233-021-k0 (bispecific antibody, human IgG1, kappa)
heavy 1: not shown
heavy 2: not shown
light: B1 light with Q27R, S76R, Q79K
B30: CFP0020H0261-G1dP1/CFP0018H0012-G1dN1/CFP0020L233-022-k0 (bispecific antibody, human IgG1, kappa)
heavy 1: not shown
heavy 2: not shown
light: B1 light with G41R, S76R, Q79K
B31: CFP0020H0261-G1dP1/CFP0018H0012-G1dN1/CFP0020L233-023-k0 (bispecific antibody, human IgG1, kappa)
heavy 1: not shown
heavy 2: not shown
light: B1 light with L46R, Y49K, S76R, Q79K
B32: CFP0020H0261-G1dP1/CFP0018H0012-G1dN1/CFP0020L233-024-k0 (bispecific antibody, human IgG1, kappa)
heavy 1: not shown
heavy 2: not shown
light: B1 light with S52R, S56R, S76R, Q79K
B33: CFP0020H0261-G1dP1/CFP0018H0012-G1dN1/CFP0020L233-025-k0 (bispecific antibody, human IgG1, kappa)
heavy 1: not shown
heavy 2: not shown
light: B1 light with S65R, T69R, S76R, Q79K
B34: CFP0020H0261-G1dP1/CFP0018H0012-G1dN1/CFP0020L233-027-k0 (bispecific antibody, human IgG1, kappa)
heavy 1: not shown
heavy 2: not shown
light: B1 light with Q27R, G41R, T74K, S77R
B35: CFP0020H0261-G1dP1/CFP0018H0012-G1dN1/CFP0020L233-028-k0 (bispecific antibody, human IgG1, kappa)
heavy 1: not shown
heavy 2: not shown
light: B1 light with G41R, S52R, S56R, T74K, S77R
B36: CFP0020H0261-G1dP1/CFP0018H0012-G1dN1/CFP0020L233-029-k0 (bispecific antibody, human IgG1, kappa)
heavy 1: not shown
heavy 2: not shown
light: B1 light with G41R, S65R, T69R, T74K, S77R
B37: CFP0020H0261-G1dP1/CFP0018H0012-G1dN1/CFP0020L233-031-k0 (bispecific antibody, human IgG1, kappa)
heavy 1: not shown
heavy 2: not shown
light: B1 light with Q27R, S52R, S56R, T74K, S77R
B38: CFP0020H0261-G1dP1/CFP0018H0012-G1dN1/CFP0020L233-032-k0 (bispecific antibody, human IgG1, kappa)
heavy 1: not shown
heavy 2: not shown
light: B1 light with S52R, S56R, S65R, T69R, T74K, S77R
B39: CFP0020H0261-G1dP1/CFP0018H0012-G1dN1/CFP0020L233-034-k0 (bispecific antibody, human IgG1, kappa)
heavy 1: not shown
heavy 2: not shown
light: B1 light with Q27R, S65R, T69R, T74K, S77R
B40: CFP0020H0261-G1dP1/CFP0018H0012-G1dN1/CFP0020L233-036-k0 (bispecific antibody, human IgG1, kappa)
heavy 1: not shown
heavy 2: not shown
light: B1 light with Q27R, G41R, S76R, Q79K
B41: CFP0020H0261-G1dP1/CFP0018H0012-G1dN1/CFP0020L233-037-k0 (bispecific antibody, human IgG1, kappa)
heavy 1: not shown
heavy 2: not shown
light: B1 light with G41R, S52R, S56R, S76R, Q79K
B42: CFP0020H0261-G1dP1/CFP0018H0012-G1dN1/CFP0020L233-038-k0 (bispecific antibody, human IgG1, kappa)
heavy 1: not shown
heavy 2: not shown
light: B1 light with G41R, S65R, T69R, S76R, Q79K
B43: CFP0020H0261-G1dP1/CFP0018H0012-G1dN1/CFP0020L233-040-k0 (bispecific antibody, human IgG1, kappa)
heavy 1: not shown
heavy 2: not shown
light: B1 light with Q27R, S52R, S56R, S76R, Q79K
B44: CFP0020H0261-G1dP1/CFP0018H0012-G1dN1/CFP0020L233-041-k0 (bispecific antibody, human IgG1, kappa)
heavy 1: not shown
heavy 2: not shown
light: B1 light with S52R, S56R, S65R, T69R, S76R, Q79K
B45: CFP0020H0261-G1dP1/CFP0018H0012-G1dN1/CFP0020L233-043-k0 (bispecific antibody, human IgG1, kappa)
heavy 1: not shown
heavy 2: not shown
light: B1 light with Q27R, S65R, T69R, S76R, Q79K
B46: CFP0020H0261-G1dP1/CFP0018H0012-G1dN1/CFP0020L233-044-k0 (bispecific antibody, human IgG1, kappa)
heavy 1: not shown
heavy 2: not shown
light: B1 light with S76R
B47: CFP0020H0261-G1dP1/CFP0018H0012-G1dN1/CFP0020L233-045-k0 (bispecific antibody, human IgG1, kappa)
heavy 1: not shown
heavy 2: not shown
light: B1 light with S65R, Q79K

Target: T1, soluble human FcγRIIb
Experiment: SPR, Ab-antigen (C5) complex over captured hFcγRIIb, pH 7.4, 25C
Description: An appropriate amount of an anti-His antibody was fixed onto Sensor chip CM5 (GE Healthcare) by the amine coupling method using a His capture kit (GE Healthcare) to capture hFcγRIIb. […] 20 mM N-(2-Acetamido)-2-aminoethanesulfonic acid, 150 mM NaCl, 1.2 mM CaCl₂, and 0.05% (w/v) Tween 20 at pH 7.4 was used as the running buffer, and the respective buffer was also used to dilute the soluble hFcγRIIb. To regenerate the sensor chip, 10 mM glycine-HCl at pH 1.5 was used. All measurements were carried out at 25° C. […] To calculate the parameters, the BIACORE T100 Evaluation Software (GE Healthcare) was used.

Binder	BIACORE fold (relative binding, original Ab2=1.00) [fold]
B1	0.91
B2	1.09
B3	0.96
B4	0.2
B5	1.52
B6	0.96
B7	0.52
B8	1.05
B9	0.34
B10	0.8
B11	1.08
B12	0.72
B13	1.59
B14	0.92
B15	0.32
B16	0.75
B17	1.83
B18	1.89
B19	0.95
B20	0.29
B21	0.78
B22	1.01
B23	0.14
B24	0.68

Binder	BIACORE fold (relative binding, original Ab2=1.00) [fold]
B25	1.96
B26	0.18
B27	1.43
B28	7.72
B29	1.77
B30	2.04
B31	0.18
B32	2.16
B33	3.18
B34	2.24
B35	1.94
B36	9.63
B37	1.78
B38	11.1
B39	8.61
B40	2.45
B41	2.43
B42	4.24
B43	2.32
B44	5.78
B45	3.51
B46	1.25
B47	1.46
